What was measured:
[1] = system: cellular microtubules in A-10 cells; assay: Loss of cellular microtubules, indirect immunofluorescence in A-10 cells; assay type: cell-based
[2] = physchem; settings: water

For `COc1ccc(N(C)c2nc(C)nc3oc(C)cc23)cc1` [Compound 11, N-(4-methoxyphenyl)-N,2,6-trimethylfuro[2,3-d]pyrimidin-4-amine], the “effect on cellular microtubules” value [1] was “dose-dependent loss of cellular microtubules”.

With `COc1ccc(N(C)c2nc(C)nc3oc(C)cc23)cc1.Cl` [Compound 21, N-(4-methoxyphenyl)-N,2,6-trimethylfuro[2,3-d]pyrimidin-4-amine hydrochloride] the solubility [2] was > 1000 mg/mL.
